According to patent US20230277591A1, “USE OF FLT3 CAR-T CELLS AND FLT3 INHIBITORS TO TREAT ACUTE MYELOID LEUKEMIA” (JULIUS-MAXIMILIANS-UNIVERSITÄT WÜRZBURG, priority 2017, published 2023):

Assays:
[1] = tested on: MOLM-13 AML cells; assay: MOLM-13 xenograft model of AML in NSG mice; format: in vivo, mouse; details: quizartinib 1 mg/kg i.p., after 5 doses
Experimental: All experiments were approved by the Institutional Animal Care and Use Committees of the participating institutions. NOD.Cg-Prkdc^scid Il2rg^tm1Wjl/SzJ (NSG) mice (female, 6-8 week old) were purchased from Charles River or bred in-house. Mice were inoculated with 1×10^6 ffluc_GFP^+ MOLM-13 AML cells by tail vein injection on day 0, and received a single dose of 5×10^6 T cells (in 200 µL of PBS/0.5% FCS) by tail vein injection on day 7. Crenolanib [15 mg/kg; 200 µL of 30% glycerol formal (Sigma Aldrich, Munich, Germany)] was administered intraperitoneally (i.p.) Monday-Friday for 3 consecutive weeks. AML progression/regression was assessed by serial bioluminescence imaging following i.p. administration of D-luciferin substrate (0.3 mg/g body weight) (Biosynth, Staad, Switzerland) using an IVIS Lumina imaging system (Perkin Elmer, Waltham, Massachusetts). Data was analyzed using Living Image software (Perkin Elmer).
All experiments were approved by the Institutional Animal Care and Use Committees of the participating institutions. […] AML progression/regression was assessed by serial bioluminescence imaging following i.p. administration of D-luciferin substrate (0.3 mg/g body weight) (Biosynth, Staad, Switzerland) using an IVIS Lumina imaging system (Perkin Elmer, Waltham, Massachusetts). Data was analyzed using Living Image software (Perkin Elmer).

[2] = tested on: THP-1 AML cells; assay: Flow cytometric analysis of FLT3 expression after FLT3 inhibitor treatment, THP-1; format: cell-based, human; details: THP-1, wild-type FLT3
Experimental: (§1) Cell surface expression of FLT3 (CD135) was analyzed using a conjugated mouse-anti-human-FLT3 mAb (clone 4G8, BD Pharmagin, BD Biosciences, Germany) and mouse IgG1 isotype control (BD Pharmagin). In brief, 1×10^6 cells were washed, resuspended in 100 µL PBS/0.5% fetal calf serum and stained with 5 µL of anti-FLT3 mAb or isotype for 30 minutes at 4° C.

[3] = tested on: K562 erythro-myeloid leukemia; assay: Flow cytometric analysis of FLT3 expression after FLT3 inhibitor treatment, K562; format: cell-based, human; details: K562, wild-type FLT3
Experimental: as §1

[4] = tested on: MOLM-13 AML cells; assay: Flow cytometric analysis of surface expression (FLT3, CD33, CD123) after FLT3 inhibitor treatment, MOLM-13; format: cell-based, human
Experimental: as §1
A complete medium change was performed every 7 days, MOLM-13 cells adjusted to 1×10^6/mL medium and 2 mL of this cell suspension plated per well in […] (Costar, Corning, NJ). After 2-3 weeks of culture with 10 nM midostaurine, MOLM-13 cells were exposed to exponentially increasing concentration of midostaurine for next 8-10 weeks to reach 50 nM midostaurin.

[5] = tested on: MV4;11 AML cells; assay: Flow cytometric analysis of surface expression after FLT3 inhibitor treatment, MV4;11; format: cell-based, human
Experimental: as §1

[6] = tested on: JeKo-1 mantle cell lymphoma; assay: Flow cytometric analysis of FLT3 expression after FLT3 inhibitor treatment, JeKo-1; format: cell-based, human; details: JeKo-1, wild-type FLT3
Experimental: as §1

Q: Which “FLT3 expression on MOLM-13 cells recovered from bone marrow” value [1] does the source give for CC(C)(C)c1cc(NC(=O)Nc2ccc(-c3cn4c(n3)sc3cc(OCCN5CCOCC5)ccc34)cc2)no1 [quizartinib] here?
A: increased FLT3 expression

Q: And the “increase in FLT3 expression upon exposure” value (shortened to “increase”) [2]?
A: did not occur

Q: And the “increase” value [3]?
A: did not occur

Q: And the “FLT3 surface protein (MFI) compared to MOLM-13native” value ([4]; 10 nM midostaurin 2-3 weeks, 10 nM crenolanib 5 days, 1 nM quizartinib 5 days, p < 0.05)?
A: significantly higher levels

Q: And the “FLT3 expression upon re-exposure to the drug” value ([4]; MOLM-13 after withdrawal)?
A: increased again

Q: And the “CD33 expression on MOLM-13” value ([4]; inhibitor-treated vs native)?
A: not affected

Q: And the “CD123 expression on MOLM-13” value ([4]; inhibitor-treated vs native)?
A: not affected

Q: What about the “FLT3 expression upon exposure” value ([5]; MV4;11 (FLT3-ITD+/+)) of the same molecule?
A: increase

Q: And the “CD33 expression on MV4;11” value ([5]; inhibitor-treated)?
A: not affected

Q: And the “CD123 expression on MV4;11” value ([5]; inhibitor-treated)?
A: not affected

Q: What about the “increase” value [6] of the same molecule?
A: did not occur
